# Reference: PubChem BioAssay AID624465 (National Center for Advancing Translational Sciences (NCATS), 2012)
# Sequences of proteins named here, by UniProt entry; tags and fusion partners are left off.
# UniProt P14416, whole entry: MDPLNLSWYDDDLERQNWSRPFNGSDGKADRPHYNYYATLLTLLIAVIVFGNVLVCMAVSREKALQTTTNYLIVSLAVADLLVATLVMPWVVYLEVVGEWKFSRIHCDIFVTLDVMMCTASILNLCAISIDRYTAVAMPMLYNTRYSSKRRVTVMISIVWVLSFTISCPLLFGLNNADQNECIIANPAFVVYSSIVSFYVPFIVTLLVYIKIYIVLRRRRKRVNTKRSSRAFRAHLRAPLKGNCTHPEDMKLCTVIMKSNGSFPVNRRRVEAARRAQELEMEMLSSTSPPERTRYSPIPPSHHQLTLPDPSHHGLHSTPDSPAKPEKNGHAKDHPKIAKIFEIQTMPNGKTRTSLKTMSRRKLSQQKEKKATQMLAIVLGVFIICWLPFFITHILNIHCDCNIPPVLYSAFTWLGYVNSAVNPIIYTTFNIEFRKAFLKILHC
# Only a part is listed here, and it is no random draw. Some salts and complexes are drawn in separate pieces, as the source files them; their charges need not balance. Calls of active or inactive are those of the source. No stated cut-off is given here; in the data, active means activation above about 40%; inconclusive means between about 15% and that limit; inactive means weaker than that.
# Molecular target: D(2) dopamine receptor (Homo sapiens) (UniProt P14416)
# Assay: Beta-Arrestin HTS for Positive Allosteric Modulators of the Human D2 Dopamine Receptor: Agonists
# Conditions: DiscoveRx PathHunter D2 beta-arrestin, luminescence, 90 min; stronger effect = higher value; 100% = 57 uM dopamine signal
# From the text: There is great interest in identifying small molecule ligands for G-protein coupled receptors (GPCRs) as nearly 50% of all FDA-approved drugs target these important receptor proteins. […] Amongst the dopamine receptors (DARs), the D2 is arguably one of the most validated drug targets in neurology and psychiatry. For instance, all receptor-based antiparkinsonian drugs primarily work via stimulating the D2 DAR, whereas all FDA-approved antipsychotic agents are antagonists of this receptor. The D2 DAR is also therapeutically targeted in other disorders such as restless legs syndrome, tardive dyskinesia, Tourette's syndrome, and hyperprolactinemia.
# To this end, a miniaturized qHTS screen was developed to be screened against the Molecular Libraries Small Molecule Repository (MLSMR). This assay seeks to identify agonists against the D2 DAR.
# NIH Molecular Libraries Probe Production Network [MLPCN]
# NIH Chemical Genomics Center [NCGC]
# PI Name: David Sibley, National Institutes of Neurological Disorders and Stroke
# DiscoveRx D2 cells were thawed from frozen stock and seeded at 2,100 cells/ 3 uL/well media (DiscoveRx Plating Reagent 2) with MultiDrop Combi dispenser (Thermo Scientific, Logan, UT) onto white tissue culture treated 1536-well Aurora plates (Brooks Automation, Chelmsford, MA) and allowed to attach overnight at 37 deg C, 5% CO2. Next, 23 nL/well of compound solutions in DMSO were added with a pintool transfer (Kalypsis, San Diego, CA). As the positive control, 1 uL/well dopamine (EC100, 57 uM final concentration) diluted in buffer (HBSS + 10 mM HEPES + SMB + 0.1% Tween-20) was dispensed to 1 column of each plate. The rest of the plate was dispensed with buffer only, 1 uL/well as well. The cells were stimulated by compounds or dopamine control for 90 minutes at 37 deg C, 5% CO2, after which 1.5 ul/well of DiscoveRx detection reagent was added with BioRAPTR FRD dispenser. The detection reagent was prepared by mixing of Galacton Star Substrate, Emerald II solution and PathHunter buffer (supplied by the assay kit) together at 1:5:19 proportion accordingly just prior to dispensing. The plates were incubated at ambient temperature for 1 hour and then the luminescent signal was read on ViewLux plate reader (PerkinElmer, Waltham, MA).
row,Structure (SMILES),activation
1,Cc1ccc(C(=O)NCC2(N3CCCCC3)CCCCC2)o1,inactive: -0.482%
2,Cc1ccc(NC2(C#N)CCN(Cc3ccccc3)CC2)cc1,inactive: 0.712%
3,O=c1[nH]c2ccccc2n1C1CCN(C(c2ccccc2)c2nnnn2C2CCCCC2)CC1 (stereo unspecified),inactive: 5.78%
4,COc1cc(C(=O)NCC2(N(C)C)CCCCC2)ccc1OC(F)F,inactive: 0.547%
5,CCOC(=O)N1CCC(Nc2cccc(C)c2)CC1,inactive: -1.38%
6,O=c1[nH]c2ccccc2n1C1CCN(C(c2cccc3ccccc23)c2nnnn2C2CCCC2)CC1 (stereo unspecified),inactive: -2.02%
7,O=C1CCN(Cc2ccccc2)CC1,inactive: -6%
8,CC(C)(C)n1nnnc1C(c1ccccc1)N1CCC(n2c(=O)[nH]c3ccccc32)CC1 (stereo unspecified),inactive: 11.1%
9,CCOc1ccc(C)cc1CN(CCCl)CCCl,inactive: -0.262%
10,COc1ccc(NC2CCN(CCc3ccccc3)CC2)c(OC)c1,inactive: -2.45%
11,CCOC(=O)N1CCC(Nc2ccc(F)cc2)CC1,inactive: -4.96%
12,O=C(NCC1(N2CCCCC2)CCCCC1)c1ccc(F)cc1,inactive: 0.468%
13,O=P1(N(CCCl)CCCl)SCCCS1,inactive: 1.44%
14,CCCCOc1ccc(C(=O)NCC2(N3CCOCC3)CCCCC2)cc1,inactive: 5.7%
15,Cc1cc(C)cc(N(C(=O)c2ccccc2)C2CCN(C(=O)OC(C)(C)C)CC2)c1,inactive: -0.783%
16,O=c1[nH]c2ccccc2n1C1CCN(C(c2ccccc2OC(F)(F)F)c2nnnn2C2CCCCC2)CC1 (stereo unspecified),inactive: -3.22%
17,O=C(NCC1(N2CCCCC2)CCCCC1)c1ccc(Cl)nc1,inactive: -0.731%
18,O=C(NCC1(N2CCOCC2)CCCCC1)c1cc2ccccc2o1,inactive: -2.28%
19,O=C1C(O)=C([N+](=O)[O-])C(=O)C(O)=C1[N+](=O)[O-],inactive: 1.7%
20,COc1ccc(Cl)cc1C(=O)NCC1(N2CCOCC2)CCCCC1,inactive: -7.51%
21,O=C(OC1CN2CCC1CC2)C1c2ccccc2Oc2ccccc21 (stereo unspecified),inactive: -2.29%
22,O=c1[nH]c2ccccc2n1C1CCN(C(c2cc3ccccc3o2)c2nnnn2C2CCCCC2)CC1 (stereo unspecified),inactive: 3.55%
23,N#CC1(Nc2ccccc2)CCN(Cc2ccccc2)CC1,inactive: -10.6%

row,Structure (SMILES),activation
1,O=C(NCC1(N2CCCCC2)CCCCC1)c1ccc(Cl)s1,inactive: 0.0206%
2,CCCCn1nnnc1C(c1ccc(OC)cc1)N1CCC(n2c(=O)[nH]c3ccccc32)CC1 (stereo unspecified),inactive: 3.72%
3,CCOC(=O)N1CCC(Nc2ccc(OC)cc2)CC1,inactive: 1.62%
4,CCC(c1nnnn1C1CCCC1)N1CCC(n2c(=O)[nH]c3ccccc32)CC1 (stereo unspecified),inactive: -0.289%
5,COc1ccc(C(=O)NCC2(N3CCCCC3)CCCCC2)c(OC)c1OC,inactive: -1.99%
6,CC(C)(C)OC(=O)N1CCC(N(C(=O)c2ccccc2)c2ccc(F)cc2)CC1,inactive: 0.0967%
7,COc1ccc(C(=O)NCC2(N3CCCCC3)CCCCC2)cc1,inactive: -0.912%
8,CCCCn1nnnc1C(CC)N1CCC(n2c(=O)[nH]c3ccccc32)CC1 (stereo unspecified),inactive: -5.67%
9,O=C(NCC1(N2CCCCC2)CCCCC1)c1cccs1,inactive: -4.41%
10,O=C(NCC1(N2CCCCC2)CCCCC1)c1ccc(=O)[nH]c1,inactive: -0.481%
11,Cc1cccc(NC2(C#N)CCN(Cc3ccccc3)CC2)c1,inactive: -1.52%
12,CSc1ccccc1C(=O)NCC1(N2CCCCC2)CCCCC1,inactive: -2.12%
13,O=C(OC1CN2CCC1CC2)c1ccc([N+](=O)[O-])cc1 (stereo unspecified),inactive: -0.655%
14,O=C(NCC1(N2CCCCC2)CCCCC1)c1cncc(Br)c1,inactive: 2.93%
15,COc1ccc2c(c1O)-c1c(O)c(OC)cc3c1[C@H](C2)[N+](C)(C)CC3.O=[N+]([O-])c1cc([N+](=O)[O-])c([O-])c([N+](=O)[O-])c1[O-],inactive: 1.91%
16,CN1CCC(Nc2cccc(F)c2)CC1,inactive: 2.41%
17,O=[N+]([O-])c1cc([N+](=O)[O-])c(Nc2ccc(Cl)cc2)c([N+](=O)[O-])c1,inactive: 8.89%
18,COc1ccc(C(c2nnnn2C2CCCC2)N2CCC(n3c(=O)[nH]c4ccccc43)CC2)cc1 (stereo unspecified),inactive: 4.62%
19,CCCOc1ccc(C(=O)NCC2(N(C)C)CCCCC2)cc1OC,inactive: -0.78%
20,Cc1ccc(C(=O)NCC2(N(C)C)CCCCC2)o1,inactive: 2.51%
21,CC(C)c1ccc(NC2CCN(C(=O)OC(C)(C)C)CC2)cc1,inactive: 0.114%
22,CCCCn1nnnc1C(c1ccccc1OC(F)(F)F)N1CCC(n2c(=O)[nH]c3ccccc32)CC1 (stereo unspecified),inactive: 5.34%
23,O=[N+]([O-])c1cc([N+](=O)[O-])c(OC2CCCCC2O)c([N+](=O)[O-])c1 (stereo unspecified),inactive: -9.36%
